{
  "sequences": {"note": "Protein sequences, listed by entry. Tags and fused reporters are not part of them. Residues count along the entry.", "UniProt P10153, 28-161": "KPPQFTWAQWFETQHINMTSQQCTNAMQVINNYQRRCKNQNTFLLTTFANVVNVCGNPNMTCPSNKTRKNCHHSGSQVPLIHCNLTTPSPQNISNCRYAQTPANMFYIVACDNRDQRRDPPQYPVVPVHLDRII"},
  "source": "paper PMC6005897",
  "about": "“Ligand-Induced Variations in Structural and Dynamical Properties Within an Enzyme Superfamily” (Frontiers in Molecular Biosciences, 2018)",
  "biological_target": "T1, human RNase 2 (RN2_Human) (Homo sapiens, UniProt P10153)",
  "T1 construct": "made in house; host or cells: Escherichia coli",
  "assay": "NMR chemical shift titration, ligand binding to human RNase 2",
  "details": "298 K, 15 mM sodium acetate pH 5.0, ± standard deviation of the fit",
  "text": "The pH was carefully monitored throughout the experiments and readjusted with Tris-base or acetic acid if necessary. Ligands 3′-UMP (Chemical Impex Intl Inc., Wood Dale, IL, USA) and 5′-AMP (BioBasic Inc., Markham, ON Canada) were purchased commercially and dissolved in the same buffer as the protein. ^1H-^15N sensitivity-enhanced HSQC experiments were acquired at 800 MHz (18.8 T) using spectral widths (points) of 2025 (160) and 8000 Hz (1024) in the ω1 and ω2 dimensions, respectively. Titration experiments were performed for each ligand with enzyme:ligand molar ratios up to 1:12 (1:12), 1:18 (1:18), 1:24 (1:18), 1:30 (1:18) and 1:18 (1:30) for the 3′-UMP- (5′-AMP-) bound states of bovine RNase A and human RNases 2, 3, 4, and 5, respectively.\nThe equilibrium dissociation constant (Kd) was calculated by plotting weighted average chemical shift differences (Δδobs) as a function of ligand concentration and fitting the data using the following equation: […]\nThe Kd was estimated by simultaneously fitting the data of all residues affected by ligand binding (Williamson, [2013]). We note that Δδmax is a fitted parameter and not an experimentally measured one. […] Chemical shift perturbations (Δδobs) were calculated as the difference in the weighted average chemical shift of the ligand-bound (5′-AMP and 3′-UMP) and apo states, as shown below. […]",
  "data": [
    {"substance": "dATATA", "values": [
      {"measurement": "Kd", "result": "384 ± 33.3", "unit": "µM"}
    ]}
  ]
}
